Earlier results on one substance are cited in patent publication US9169307B2, “Potent compstatin analogs” (The Trustees of the University of Pennsylvania, priority 2005, dated 2015).

For the data set the following is noted: intravenous bolus into rabbits; cited from earlier work.

What is called half-life is the time needed for the level to fall by half in the phase considered. As to “AcRLIEDICLPRWGCLWEDDNH2 (N-terminal acetyl, C-terminal amide) [SA21]”, the half-life is reported as 2.3 h.
